Here are results for two compounds from BindingDB's records for doi:10.1016/s0006-2952(97)00631-x (Roche Bioscience, 1998).

The chains behind the UniProt entries cited, without tags or fusion partners.
UniProt P18089, whole entry: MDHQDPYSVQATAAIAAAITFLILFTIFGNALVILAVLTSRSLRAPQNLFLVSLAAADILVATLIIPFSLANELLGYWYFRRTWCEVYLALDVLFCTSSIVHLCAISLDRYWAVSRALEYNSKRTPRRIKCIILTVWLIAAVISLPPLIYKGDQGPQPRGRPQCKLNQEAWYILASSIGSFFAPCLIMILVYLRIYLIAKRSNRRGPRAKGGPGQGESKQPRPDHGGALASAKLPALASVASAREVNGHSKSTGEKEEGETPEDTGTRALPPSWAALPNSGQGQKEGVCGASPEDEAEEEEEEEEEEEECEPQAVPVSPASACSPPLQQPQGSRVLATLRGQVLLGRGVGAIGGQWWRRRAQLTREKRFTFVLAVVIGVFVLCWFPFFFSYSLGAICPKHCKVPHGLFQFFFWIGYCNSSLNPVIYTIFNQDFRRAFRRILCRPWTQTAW
UniProt Q1HL33, whole entry: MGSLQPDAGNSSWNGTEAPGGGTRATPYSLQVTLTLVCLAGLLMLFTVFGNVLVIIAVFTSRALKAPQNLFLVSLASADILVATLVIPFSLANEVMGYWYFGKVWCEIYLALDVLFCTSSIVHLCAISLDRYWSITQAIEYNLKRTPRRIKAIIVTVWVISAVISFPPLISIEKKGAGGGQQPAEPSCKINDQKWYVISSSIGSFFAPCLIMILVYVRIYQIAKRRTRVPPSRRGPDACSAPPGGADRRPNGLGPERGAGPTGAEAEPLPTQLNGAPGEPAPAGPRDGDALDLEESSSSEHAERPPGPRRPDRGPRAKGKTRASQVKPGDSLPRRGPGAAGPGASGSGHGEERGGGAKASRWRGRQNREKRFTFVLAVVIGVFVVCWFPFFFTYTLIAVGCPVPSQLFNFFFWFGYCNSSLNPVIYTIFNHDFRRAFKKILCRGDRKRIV

The target of assay [1] is Alpha-2B adrenergic receptor (Homo sapiens, UniProt P18089).
For assay [2], the target named is Alpha-2A adrenergic receptor (Mus musculus, UniProt Q1HL33).

A word on the Ki: it is the dissociation constant of the complex between target and ligand, obtained from inhibition or displacement. A high value points to a looser hold on the target. The compound `Nc1cc(Cl)c(N=C2NCCN2)c(Cl)c1` [p-AMINOCLONIDINE] gave a Ki in assay [1] of 29.5 nM. In other words, the double-digit nanomolar range.

For the compound `COC(=O)[C@@H]1[C@H]2C[C@H]3c4[nH]c5ccccc5c4CCN3C[C@@H]2CC[C@@H]1O` [yohimbic acid methyl ester], the Ki in assay [2] is 61.7 nM.
